Data on 1 molecule can be found in article PMC3605724 (2013).

Each structure is given as a SMILES string.

In the series the test system is Caco-2 cell monolayers. The experiment in a line: Transport studies across Caco-2 cell monolayers. (Caco-2 cells form a polarised layer with tight junctions and transporters.)

As to `CC(CCc1ccccc1)NCC(O)c1ccc(O)c(C(N)=O)c1` (centres unmarked) [Labetalol], where the note is “0.1 mM verapamil, 0.1 times HDS, AP pH 7.5”, the “Decrease in BL-AP direction transport caused by verapamil” value came out at 2.3 times. The “Increase of ER under AP pH 6.5” value (AP pH 6.5 compared with AP pH 7.5) was determined as 6.2 times.
